We go through three substances from publication PMC7181051, “Probing the Protein-Protein Interaction between the ATRXADD Domain and the Histone H3 Tail” (Molecules, 2020).

For assay [1], the target named is T1, ATRXADD (Homo sapiens, UniProt P46100).
T1 construct: The pGEX-GP-2-ATRX ADD plasmid (Addgene plasmid #59698) [17] was transformed into BL21 cells for expression and purification; GST (N, cleaved yes); peptides GenScript #59698; host or cells: E. coli BL21
T1 sequence (P46100 159-296 limits assumed): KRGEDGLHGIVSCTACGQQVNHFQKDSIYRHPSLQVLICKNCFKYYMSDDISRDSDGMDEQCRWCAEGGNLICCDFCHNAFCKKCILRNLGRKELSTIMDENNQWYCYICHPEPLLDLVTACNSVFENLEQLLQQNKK
The following applies: fluorescence-titration assay; cited from earlier work. The source says: It is important to note that a previous fluorescence-titration assay determined Kd values for binding of a small set of H3 peptides to ATRXADD [14]. […] Since our primary goal for these initial binding studies was to replicate the previously identified binding trend ac ...

For assay [2], the target named is T1, ATRXADD. Nature of the assay: Isothermal titration calorimetry (ITC), this manuscript. It is filed as binding. The following applies: data not shown. Background: ITC needs no label: the signal is the heat of the interaction.

By Kd is commonly meant the free concentration of one partner at which half of the binding sites on the other are occupied at equilibrium, for simple one-to-one binding. Consider “H3K9me3: H3 peptide of a previous fluorescence-titration assay (ref 14) [Peptide H3K9me3]”, for which the Kd in assay [1] was 1.3 µM.

Take “H3K9me0: H3 peptide of a previous fluorescence-titration assay (ref 14) [Peptide H3K9me0]”: in assay [1], the Kd is greater than 80 µM. On to “5-FAM-ARTKQTARKme3STGGKA [FAM-H31-15K9me3, H3_1–15K9me3 labelled at the N-terminus with the fluorescent FAM label]”, for which the “ability to bind ATRXADD (ITC), in words” value in assay [2] was “completely abolished the ability of the H3 peptide to bind ATRXADD”.
